The numbers were not newly measured in patent US20040051079A1, “Compression molded product of quick-dissolving chlorinated isocyanuric acid” (published 2004), which cites them from elsewhere.

For this series the following is noted: background art; reference amount of water not given.

Turning to potassium dichloroisocyanurate, the solubility in water result is reported as “about 25 g”. Consider sodium dichloroisocyanurate, for which the solubility in water entry is listed as “about 25 g”.
